The values below are quoted from earlier work in publication PMC8214142.

For this series, the target named is WDR5 (Homo sapiens) (UniProt P61964). Put plainly: sedimentation velocity.

In the case of “MLL1 225-residue MLL1Win-containing polypeptide (from UniProt Q03164)”, the Kd was 120 nM.
